# Laboratory results from PubChem BioAssay AID602363 (Broad Institute, 2012).
# The list shows a part of the results, in another mix than the full data. Activity calls are given as the source filed them.
# Experiment: modulators of yeast start codon fidelity, primary screen, whole organism, S. cerevisiae, single point, plate reader (AID 602363);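 note: firefly luciferase made from a UUG start codon reports start codon fidelity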
# Settings: S. cerevisiae UUG-firefly luciferase reporter, luminescence/redox ratio; at 18.7 µM; stronger effect = higher value
row,SMILES,activity score
1,CC1=C2N=C(C=C3N=C(C(C)=C4[N-][C@@](C)([C@@H]5N=C1[C@](C)(CCC(=O)NC[C@@H](C)OP(=O)([O-])O[C@H]1[C@@H](O)[C@@H](n6cnc7cc(C)c(C)cc76)O[C@@H]1CO)[C@H]5CC(N)=O)[C@@](C)(CC(N)=O)[C@@H]4CCC(N)=O)[C@@](C)(CC(N)=O)[C@@H]3CCC(N)=O)C(C)(C)[C@@H]2CCC(N)=O.[C-]#N.[Co+3],inactive: -14.7%
